The values below are quoted from earlier work in patent publication US20100286272A1, “Methods Of Use Of Nitroalkene Compositions In Dermatologic Applications” (priority 2009, published 2010).

Chains of the proteins cited; added tags and fusions are not shown. Residues count along the entry.
UniProt P80457, 2-1332 limits assumed: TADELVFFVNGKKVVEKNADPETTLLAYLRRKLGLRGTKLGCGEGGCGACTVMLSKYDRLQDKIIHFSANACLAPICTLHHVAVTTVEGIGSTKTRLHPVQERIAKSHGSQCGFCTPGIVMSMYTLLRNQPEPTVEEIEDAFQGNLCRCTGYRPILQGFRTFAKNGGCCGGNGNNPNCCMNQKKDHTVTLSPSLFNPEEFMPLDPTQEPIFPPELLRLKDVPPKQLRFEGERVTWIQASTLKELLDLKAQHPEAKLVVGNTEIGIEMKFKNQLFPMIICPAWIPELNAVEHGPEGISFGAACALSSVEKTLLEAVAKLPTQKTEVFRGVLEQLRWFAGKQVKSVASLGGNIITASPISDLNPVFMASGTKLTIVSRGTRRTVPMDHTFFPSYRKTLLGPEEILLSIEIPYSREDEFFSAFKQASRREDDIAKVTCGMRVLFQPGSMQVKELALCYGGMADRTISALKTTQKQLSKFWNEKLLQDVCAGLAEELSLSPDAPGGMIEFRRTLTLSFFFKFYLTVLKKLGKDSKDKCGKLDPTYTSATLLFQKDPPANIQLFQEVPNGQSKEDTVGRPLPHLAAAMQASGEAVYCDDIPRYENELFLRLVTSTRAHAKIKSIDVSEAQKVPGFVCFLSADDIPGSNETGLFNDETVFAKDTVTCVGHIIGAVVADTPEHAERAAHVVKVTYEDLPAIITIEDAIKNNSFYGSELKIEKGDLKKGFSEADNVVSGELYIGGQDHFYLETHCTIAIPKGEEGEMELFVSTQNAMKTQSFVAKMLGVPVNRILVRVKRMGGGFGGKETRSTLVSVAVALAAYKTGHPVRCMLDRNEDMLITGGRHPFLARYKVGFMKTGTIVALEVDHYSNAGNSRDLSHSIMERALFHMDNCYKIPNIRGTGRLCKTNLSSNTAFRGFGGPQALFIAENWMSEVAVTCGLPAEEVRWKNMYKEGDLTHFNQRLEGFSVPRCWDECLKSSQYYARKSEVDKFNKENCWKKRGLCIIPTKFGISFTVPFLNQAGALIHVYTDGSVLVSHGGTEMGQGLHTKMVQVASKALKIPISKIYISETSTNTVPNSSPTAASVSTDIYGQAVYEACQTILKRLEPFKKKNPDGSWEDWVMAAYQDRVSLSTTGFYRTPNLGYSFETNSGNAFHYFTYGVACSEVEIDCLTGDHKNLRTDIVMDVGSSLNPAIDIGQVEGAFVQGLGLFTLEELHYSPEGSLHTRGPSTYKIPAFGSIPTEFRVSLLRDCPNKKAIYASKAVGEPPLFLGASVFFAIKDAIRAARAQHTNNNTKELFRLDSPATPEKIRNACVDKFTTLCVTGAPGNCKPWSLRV

A word on the IC50: it is the concentration at which inhibition is half-maximal.

In the data set the target is xanthine oxidoreductase (XOR) (Bos taurus, UniProt P80457). The conditions noted are these: read-out: IC50 of xanthine oxidoreductase (XOR) activity inhibition; reported by Kelley et al., J Biol Chem, 2008.

With `CCCCCCCC/C(=C\CCCCCCCC(=O)O)[N+](=O)[O-]`, the IC50 is 600 nM.
